Source: US6355460B1 (Axys Pharmaceuticals, Inc., priority 1995, dated 2002)

Biological target: T1, thrombin (Homo sapiens, UniProt P00734)
T1 construct: β-lactamase, plasmin, thrombin, trypsin, tryptase and urokinase
Assay: In vitro enzyme inhibitor assay, thrombin
Type: biochemical
Details: ambient zinc, no EDTA, read-out: Inhibition, (Ki, μM ± S.D.) [Zn]ambient

Ki: 81.5 µM
SMILES: N=C(N)c1ccc2nc(-c3ccccn3)[nH]c2c1 [Compound 10, 5-amidino-2-pyrid-2-ylbenzimidazole]
